This assay concerns the target c-MET (Homo sapiens, UniProt P08581). In words: MET luminescence-based enzyme assay (Kinase-Glo). It is filed as biochemical. The note with it: read-out: Enzyme Assay c-MET IC50. (Kinase-Glo measures the ATP left after a reaction by luminescence.)

Chains of the proteins cited; added tags and fusions are not shown. Residues count along the entry.
UniProt P08581, 1078-1345 limits assumed: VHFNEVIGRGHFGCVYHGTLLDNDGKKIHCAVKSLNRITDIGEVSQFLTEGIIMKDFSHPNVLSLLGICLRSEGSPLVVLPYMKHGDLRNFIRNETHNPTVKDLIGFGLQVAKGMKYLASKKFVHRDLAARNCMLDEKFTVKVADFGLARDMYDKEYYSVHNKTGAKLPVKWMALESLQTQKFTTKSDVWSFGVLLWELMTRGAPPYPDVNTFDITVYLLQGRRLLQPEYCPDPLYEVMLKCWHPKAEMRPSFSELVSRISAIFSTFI

Turning to `Cn1cc(-c2ccc3nnc([S+]([O-])c4ccc5ncccc5c4)n3n2)cn1` (stereo not shown), the IC50 – broadly, the point on the concentration scale where inhibition reaches its midpoint – lay within 1 to 10 µM.

Values taken from patent US8507489B2.
